Measured values: US9101562B2, “Additives for chlorine dioxide-containing compositions” (BASF CORPORATION, priority 2010, dated 2015)

Assay: Chlorine dioxide compatibility: ClO2 decrease in 200 ppm ClO2 test samples containing an additive (UV/Vis absorption or titration)
Assay type: physicochemical

## Sodium cyclamate [compound 8]
  ClO2 decrease @ 8 hrs: 3%
  chlorine dioxide concentration versus time behaviour: steep immediate declines in chlorine dioxide concentration, followed by much more gradual declines
